Data: patent US12606541B2, “PPARg modulators and methods of use” (Eisai R&D Management Co., Ltd., priority 2020, dated 2026)
pIC50: −log10 of the molar value.

The chains behind the UniProt entries cited, without tags or fusion partners. Residues count along the entry.
UniProt P37231, 234-505 limits assumed: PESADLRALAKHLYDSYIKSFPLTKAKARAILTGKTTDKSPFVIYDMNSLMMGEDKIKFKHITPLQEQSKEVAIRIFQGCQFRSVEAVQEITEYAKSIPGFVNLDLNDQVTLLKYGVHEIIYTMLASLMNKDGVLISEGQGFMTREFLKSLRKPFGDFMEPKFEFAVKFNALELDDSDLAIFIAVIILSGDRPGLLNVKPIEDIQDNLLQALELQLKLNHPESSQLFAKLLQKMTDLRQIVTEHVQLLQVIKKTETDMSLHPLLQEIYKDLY

What was measured:
[1] = target: His6-TEV-PPARγ-(234-505) (Homo sapiens, UniProt P37231); test: TR-FRET Assay to Measure Co-R Peptide Recruitment to PPARγ; details: read-out: TR-FRET i-Ag, Co-R peptide (SMRT-ID2) recruitment, top final concentration 20 μM
[2] = system: UM-UC-9 engineered cells; test: Cell proliferation / short-term viability assay, CellTiter-Glo 144 h; details: read-out: CTGlo 144 h UMUC9.5, G150
Protocol: Cell Seeding for Proliferation Assay
UM-UC-9 engineered cells were cultured in Dulbecco's Modified Eagle Medium (DMEM) supplemented with 10% FBS, 25 mM glucose (high glucose), 4.0 mM L-glutamine, 2.0 mM GlutaMAX™, 1.0 mM pyruvate, 1.0% non-essential amino acids (NEAA) in a 95% humidified incubator at 37° C. with 5% CO2. Cell banks of UM-UC-9 engineered assay-ready cells (ARCs) were prepared from a very active growth stage. Vials of ARCs containing approximately 5×10^6 cells per vial were stored in liquid nitrogen vapor phase cryostorage until use.
For making assay plates, ARCs were recovered from cryostorage, strained in a […] cell strainer, verified for cell viability >90% and counted using a cell counter (Cellometer Auto 1000, Nexelom). Each cell line was seeded into 384-well plates (50 μl/well) using DMEM medium at a density previously determined to be in log growth phase 7 days post-seeding (500 cells/well) using a bulk reagent dispenser (Multidrop™ Combi, Thermo Scientific) with a large-bore plastic-tip cassette pre-sanitized with 70% ethanol. One plate of cells was designated as the pretreatment time-zero (T0) control. Freshly seeded plates were allowed to sit lidded for 30 minutes within a biosafety cabinet for cells to settle distributed within the plate wells uniformly and then placed into an automated incubator (STX110, Liconic) at 37° C., 5% CO2, and 95% relative humidity.
Preparation of Test Compound in Assay-Ready Plate
Compounds were stored in a low-temperature sample archive as 10 mM dimethyl sulfoxide (DMSO) solutions at −20° C. under reduced humidity (−45° C. dew point) and protected from light. All samples in the automated archive are stored in 2D barcoded polypropylene tubes, tracked through a laboratory information management system (LIMS), and have been verified for identity and purity by NMR (Chemistry, H3 Biomedicine) and by LCMS (Analytical Chemistry, H3 Biomedicine) at the time of sample registration. Identity by mass matching and purity are again verified at the time of sample request fulfillment by redundant LCMS methods (acidic and basic separation protocols; Analytical Chemistry, H3 Biomedicine). Samples retrieved from low-temperature archive storage were solubilized by heated sonication (Bransonic® Ultrasonic Bath, Branson), transferred (Microlab Starlet, Hamilton) and serially-diluted (Viaflo Assist, Integra) by low-volume liquid handlers, and tracked in LIMS by automation log files to create a ID barcoded master dose-response plate (MDR) to serve as a standard source for all assay-ready plates (ARP) used within an experiment. ARPs prepared by acoustic transfer (ATS-100, EDC) of nL volumes from the MDR source were heat-sealed (PlateLoc, Agilent) and stored at −20° C. prior to use (<7 days from production). Tracking of liquid transfers via acoustic dispenser log files were used to update the LIMS system for all ARP plate maps.
Measurement of Pretreatment Control Cells and Sample Anti-Proliferative Effects on Treated Cells
On day 0 (pretreatment cells) or day 7 (treated cells), a cell proliferation assay was performed using an automated robotic assay platform (ACell, High-Res Biosolutions). Cell ARP's were removed from incubation, their plate lid discarded, and using a bulk reagent dispenser (Multidrop™ Combi, Thermo Scientific with a small-bore metal-tip cassette) 25 μL (1/2 volume) of Cell Titer-Glo® 2.0 Cell Viability Assay reagent (Promega) was added to wells of columns 1-23 (column 24 will be used as plate background or positive control). Cell ARP's were incubated at room temperature in an automation hotel position for a total of 1.0 minute while the next plate was delivered to the bulk reagent dispenser and then lid-free cell ARP's were returned to incubate at 37° C. for 2.5 hours. […]

Row | Compound | AC50 [1] [µM] | pIC50 [2]
1 | COc1cc(-c2cc(C(=O)N3[C@@H]4CC[C@H]3C[C@H](C(=O)NC3CCC(O)(C(F)(F)F)CC3)C4)n[nH]2)c(Cl)cn1 (single isomer, unassigned) [Example 259-A] | 0.418 | 5.83
2 | COc1cc(-c2cc(C(=O)N3[C@@H]4CC[C@H]3C[C@H](C(=O)NC3CCC(O)(C(F)(F)F)CC3)C4)n[nH]2)c(Cl)cn1 (single isomer, unassigned) [Example 259-B] | 0.0065 | 7.50
3 | Cc1cc(-c2cc(C(=O)N3CCC(C(=O)NC4CCC(O)(C(F)(F)F)CC4)CC3)n[nH]2)c(F)cn1 (single isomer, unassigned) [Example 263-A] | 0.09 | 6.42
4 | Cc1cc(-c2cc(C(=O)N3CCC(C(=O)NC4CCC(O)(C(F)(F)F)CC4)CC3)n[nH]2)c(F)cn1 (single isomer, unassigned) [Example 263-B] | 4.24 | 5.16
5 | COc1cc(-c2cc(C(=O)N3CC(C)C(C(=O)NCc4cccc(Cl)c4)CC3C)n[nH]2)c(Cl)cn1 (single isomer, unassigned) [Example 266-A] | 0.14 | 6.51
6 | COc1cc(-c2cc(C(=O)N3CC(C)C(C(=O)NCc4cccc(Cl)c4)CC3C)n[nH]2)c(Cl)cn1 (single isomer, unassigned) [Example 266-B] | 0.144 | 6.32
7 | COc1cc(-c2cc(C(=O)N3[C@@H]4CC[C@H]3C[C@H](C(=O)NC3CCC(OC)(C(F)(F)F)CC3)C4)n[nH]2)c(F)cn1 (single isomer, unassigned) [Example 275-A] | 0.0055 | 7.94
8 | COc1cc(-c2cc(C(=O)N3[C@@H]4CC[C@H]3C[C@H](C(=O)NC3CCC(OC)(C(F)(F)F)CC3)C4)n[nH]2)c(F)cn1 (single isomer, unassigned) [Example 275-B] | 0.13 | 6.60
9 | COc1cc(-c2cc(C(=O)N3[C@@H]4CC[C@H]3C[C@H](C(=O)NC3CCC(C(F)(F)F)OC3)C4)n[nH]2)c(F)cn1 (single isomer, unassigned) [Example 280-B] | 0.0065 | 7.82
10 | COc1cc(-c2cc(C(=O)N3[C@@H]4CC[C@H]3C[C@H](C(=O)NC3CCC(C(F)(F)F)OC3)C4)n[nH]2)c(F)cn1 (single isomer, unassigned) [Example 280-C] | 0.101 | 6.55
11 | COc1cc(-c2cc(C(=O)N3[C@@H]4CC[C@H]3C[C@H](C(=O)NC3CCC(C(F)(F)F)OC3)C4)n[nH]2)c(F)cn1 (single isomer, unassigned) [Example 280-D] | 0.0149 | 7.35
12 | Cc1cc(-c2cc(C(=O)N3[C@@H]4CC[C@H]3C[C@H](C(=O)NC3CCC(C(F)(F)F)OC3)C4)n[nH]2)c(F)cn1 (single isomer, unassigned) [Example 289-A] | 3.61 | 6.87
13 | Cc1cc(-c2cc(C(=O)N3[C@@H]4CC[C@H]3C[C@H](C(=O)NC3CCC(C(F)(F)F)OC3)C4)n[nH]2)c(F)cn1 (single isomer, unassigned) [Example 289-B] | 0.0028 | 7.73
14 | Cc1cc(-c2cc(C(=O)N3[C@@H]4CC[C@H]3C[C@H](C(=O)NC3CCC(C(F)(F)F)OC3)C4)n[nH]2)c(F)cn1 (single isomer, unassigned) [Example 289-C] | 0.0091 | 7.28
15 | Cc1cc(-c2cc(C(=O)N3[C@@H]4CC[C@H]3C[C@H](C(=O)NC3CCC(C(F)(F)F)OC3)C4)n[nH]2)c(F)cn1 (single isomer, unassigned) [Example 289-D] | 0.158 | 6.81
16 | COc1cc(-c2cc(C(=O)N3[C@@H]4CC[C@H]3C[C@H](C(=O)NC(C)c3nc(C(F)(F)F)no3)C4)n[nH]2)c(F)cn1 (single isomer, unassigned) [Example 290-A] | 0.132 | 6.30

Row | Compound | AC50 [1] [µM] | pIC50 [2]
17 | COc1cc(-c2cc(C(=O)N3[C@@H]4CC[C@H]3C[C@H](C(=O)NC(C)c3nc(C(F)(F)F)no3)C4)n[nH]2)c(F)cn1 (single isomer, unassigned) [Example 290-B] | 5.63 | 5.47
18 | COC1(C(F)(F)F)CCC(NC(=O)[C@@H]2C[C@H]3CC[C@@H](C2)N3C(=O)c2cc(-c3cc(C)ncc3F)[nH]n2)CC1 (single isomer, unassigned) [Example 292-A] | 0.0049 | 7.61
19 | COC1(C(F)(F)F)CCC(NC(=O)[C@@H]2C[C@H]3CC[C@@H](C2)N3C(=O)c2cc(-c3cc(C)ncc3F)[nH]n2)CC1 (single isomer, unassigned) [Example 292-B] | 0.249 | 6.04
20 | COc1cc(-c2cc(C(=O)N3[C@@H]4CC[C@H]3C[C@H](C(=O)NC3CCC(OC)(C(F)(F)F)CC3)C4)n[nH]2)c(F)cn1 (single isomer, unassigned) [Example 294-A] | 0.0054 | 7.72
21 | COc1cc(-c2cc(C(=O)N3[C@@H]4CC[C@H]3C[C@H](C(=O)NC3CCC(OC)(C(F)(F)F)CC3)C4)n[nH]2)c(F)cn1 (single isomer, unassigned) [Example 294-B] | 0.106 | 6.63
22 | COc1cc(-c2cc(C(=O)N3[C@@H]4CC[C@H]3C[C@H](C(=O)NC3CCC5(CCC(=O)N5)CC3)C4)n[nH]2)c(F)cn1 (single isomer, unassigned) [Example 295-A] | 2.09 | < 5.40
23 | COc1cc(-c2cc(C(=O)N3[C@@H]4CC[C@H]3C[C@H](C(=O)NC3CCC5(CCC(=O)N5)CC3)C4)n[nH]2)c(F)cn1 (single isomer, unassigned) [Example 295-B] | 0.433 | < 5.40
24 | COc1cc(-c2cc(C(=O)N3CC(C)C(C(=O)N[C@H]4CC[C@@](O)(C(F)(F)F)CC4)CC3C)n[nH]2)c(F)cn1 (single isomer, unassigned) [Example 298-A] | 6.51 | < 5.40
25 | COc1cc(-c2cc(C(=O)N3CC(C)C(C(=O)N[C@H]4CC[C@@](O)(C(F)(F)F)CC4)CC3C)n[nH]2)c(F)cn1 (single isomer, unassigned) [Example 298-B] | 0.833 | < 5.40
26 | COc1cc(-c2cc(C(=O)N3CC(C)C(C(=O)N[C@H]4CC[C@@](O)(C(F)(F)F)CC4)CC3C)n[nH]2)c(F)cn1 (single isomer, unassigned) [Example 298-C] | 0.306 | 5.94
27 | COc1cc(-c2cc(C(=O)N3CC(C)C(C(=O)N[C@H]4CC[C@@](O)(C(F)(F)F)CC4)CC3C)n[nH]2)c(F)cn1 (single isomer, unassigned) [Example 298-D] | 5.51 | < 5.40
28 | COc1cc(-c2cc(C(=O)N3CC(C)C(C(=O)N[C@H]4CC[C@@](O)(C(F)(F)F)CC4)CC3C)n[nH]2)c(F)cn1 (single isomer, unassigned) [Example 298-E] | 0.0338 | 6.88
29 | COc1cc(-c2cc(C(=O)N3CC(C)C(C(=O)N[C@H]4CC[C@@](O)(C(F)(F)F)CC4)CC3C)n[nH]2)c(F)cn1 (single isomer, unassigned) [Example 298-F] | 10.4 | < 5.40
30 | CCN1CC(NC(=O)[C@@H]2C[C@H]3CC[C@@H](C2)N3C(=O)c2cc(-c3cc(OC)ncc3F)[nH]n2)CCC1C(F)(F)F (single isomer, unassigned) [Example 299-A] | 0.0235 | 7.02
31 | CCN1CC(NC(=O)[C@@H]2C[C@H]3CC[C@@H](C2)N3C(=O)c2cc(-c3cc(OC)ncc3F)[nH]n2)CCC1C(F)(F)F (single isomer, unassigned) [Example 299-B] | 0.207 | 6.23
32 | CCN1CC(NC(=O)[C@@H]2C[C@H]3CC[C@@H](C2)N3C(=O)c2cc(-c3cc(OC)ncc3F)[nH]n2)CCC1C(F)(F)F (single isomer, unassigned) [Example 299-C] | 0.0083 | 7.29
